Data set [1] deals with LoVo/DX (colon adenocarcinoma resistant to doxorubicin). The settings on record: both cell lines. An excerpt: (§1) The citotoxic activity is reported as IC50, the concentration inhibiting 50% of colony formation, calculated on concentration response curves. Resistance index R.I. is the ratio between the IC50 on resistant cells and the IC50 on sensitive cells.
In data set [2] the test system is LoVo (colon adenocarcinoma). The settings on record: both cell lines.
Source text: as §1

“3'-deamino-3'-[1-aziridinyl]-4'-O-methansulfonyl-14-nicotinate-doxorubicin [Compound 2a]”: the “cytotoxic activity against LoVo/DX, in words” value in data set [1] was “high activity”. In addition, the “cytotoxic activity against LoVo, in words” value in data set [2] was “high activity”.
